# Test results taken from publication PMC4269221 (Cell reports, 2014).
# Chains of the proteins cited; added tags and fusions are not shown.
# UniProt Q00987, whole entry: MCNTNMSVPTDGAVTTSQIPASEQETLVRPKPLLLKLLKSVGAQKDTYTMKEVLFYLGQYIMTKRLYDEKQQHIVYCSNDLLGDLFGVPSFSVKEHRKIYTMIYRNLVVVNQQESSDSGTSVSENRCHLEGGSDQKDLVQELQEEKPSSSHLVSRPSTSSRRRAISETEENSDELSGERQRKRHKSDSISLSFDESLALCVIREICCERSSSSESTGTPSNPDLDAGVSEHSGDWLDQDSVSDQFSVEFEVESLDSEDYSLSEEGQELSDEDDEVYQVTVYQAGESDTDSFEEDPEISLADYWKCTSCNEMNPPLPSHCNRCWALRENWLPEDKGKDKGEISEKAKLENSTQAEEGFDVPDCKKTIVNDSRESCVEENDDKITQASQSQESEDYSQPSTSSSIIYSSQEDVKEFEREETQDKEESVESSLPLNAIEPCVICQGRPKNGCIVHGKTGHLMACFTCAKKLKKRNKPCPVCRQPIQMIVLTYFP
# Tests used:
# Mdm2 = settings: ref Graves et al., 2012; cited from earlier work
# [1] = biological target: p53-Mdm2 complexes in Saos-2 p53-Mdm2 ReBiL cells (Homo sapiens, UniProt Q00987); assay: Real-time BiLC; format: cell-based
structure (smiles),measurement,setting,value
COc1ccc(C2=N[C@@H](c3ccc(Cl)cc3)[C@@H](c3ccc(Cl)cc3)N2C(=O)N2CCNC(=O)C2)c(OC(C)C)c1 [Nutlin-3a],Mdm2 binding affinity,Mdm2,18.7 nM
same,p53-Mdm2 BiLC signal (newly synthesized complexes),"[1]; doxycycline 500 ng/ml and compound added at Time = 0, 10 μM, 24 hr, 37 °C",reduced
same,time to reach full p53-Mdm2 inhibition,"[1]; pre-induced Saos-2 p53-Mdm2 ReBiL cells, 10% FBS, 37 °C (Figure 4A)",20 min
same,disruption of preformed p53-Mdm2 complexes in living cells,"[1]; pre-induced cells, doxycycline withdrawal, 10% FBS media, 37 °C",dose dependently reduced; also recorded: disrupts

# “Also recorded” adds a separate entry of the source.
